Assay results reported in paper PMC9774897 (Antibiotics, 2022).
Values after ≈ are worked out from the molar mass of the structure shown. Non-standard residues stand in square brackets, D forms with d. Residues, ends and D or L forms follow the SMILES beside them.

Assays:
M. microti [1] = system: M. microti
[2] = system: biofilm-forming M. abscessus; experiment: Antibiofilm activity, crystal violet staining; type: cell-based; settings: 4-day old biofilms, peptide 6.2–200 µg/mL, 24 h, 37 °C, 562 nm
Experimental: The procedure is followed by the previously described. Beiefly, M. abscessus colonies grown in Middlebrook 7H11-OADC are resuspended in a sterile PBS and diluted to OD600 0.05 in Sauton’s minimal media. A total of 150 µL bacterial suspension is added into 96-well poly-D-lysine coated plates and further incubated at 37 °C for 4 days. After incubation, the culture medium and planktonic cells are removed and washed once with PBS. In this case, 150 μL of serial two-fold diluted peptide in the range of 6.2–200 µg/mL are added into a 4-day old biofilm and further incubated at 37 °C for 24 h. The peptides are removed and washed once with 150 µL PBS. Next, 100 µL of 0.05% crystal violet solution is added in each well and incubated at room temperature (RT) for 30 min. The dye solution is discarded and microwells are washed once with PBS and air-dried. The crytal violet is extracted with 300 µL of 30% acetic acid and further incubated at RT for 30 min. Finally, the absorbance is measured at 562 nm using Eon microplate spectrophotometer (BioTek Instruments, Inc., Winooski, VT, USA). The percent of relative biofilm mass is calculated. Untreated wells are defined as 100% biofilm formation. The experiment is conducted in duplicate and repeated three times.

M. microti [3] = system: M. microti; remark: listed apart in the source

CC(C)[C@@H](NC(=O)[C@@H](CO)NC(=O)[C@@H](CCCNC(=N)N)NC(=O)[C@@H](CCCNC(=N)N)NC(=O)[C@@H](CCCNC(=N)N)NC(=O)[C@@H](CCCNC(=N)N)NC(=O)CN)C(=O)N[C@H](CCC(N)=O)C(=O)N[C@H](Cc1c[nH]c2ccccc12)C(=O)N[C@H](CS)C(=O)N[C@H](C)C(=O)O [D-hLF 1-11] (H-G[dR][dR][dR][dR][dS][dV][dQ][dW][dC][dA]-OH; N-terminus and C-terminus assumed)
MIC, REMA (M. intracellulare): 100 µg/mL (≈ 72.7 µM)
MIC, MODS Assay (M. microti [1]): 200 µg/mL (≈ 145 µM)
MIC, REMA (M. avium): 100 µg/mL (≈ 72.7 µM)
antibiofilm activity, relative biofilm mass versus untreated biofilm control [2]: no significant difference
MIC, REMA (M. microti [3]): 100 µg/mL (≈ 72.7 µM)
